From paper PMC5932250 (Journal of the American Chemical Society, 2018)

What was measured:
Experiment in all cases: fluorescence polarisation
[1] = target: His6-SgbL (Streptomyces globisporus subsp. globisporus NRRL B2293)
[2] = target: FITC-SgbA(leader) (Streptomyces globisporus subsp. globisporus NRRL B2293)
[3] = target: FITC-SgbA(−11 to −28) (Streptomyces globisporus subsp. globisporus NRRL B2293)
[4] = target: FITC-SgbA(−15 to −23) (Streptomyces globisporus subsp. globisporus NRRL B2293)
[5] = target: FITC-SgbA(−9 to −23) (Streptomyces globisporus subsp. globisporus NRRL B2293)

Row | Substance | IC50 [1] | further results
1 | Ac-SgbA(−1 to −20) (peptide) | 174 µM | 
2 | Ac-SgbA(−9 to −23) (peptide) | 197 µM | 
3 | Ac-SgbA(−15 to −23) (peptide) | 147 µM | 
4 | His6-SgbL (enzyme) |  | Kd [2]: 188 nM; Kd [3]: 530 nM; Kd [4]: 2070 nM; Kd [5]: 744 nM
5 | SgbA(leader) (peptide) | 4.5 µM | 
6 | SgbA(−11 to −28) (peptide) | 16.5 µM | 
